The entries are a selection whose mix differs from that of the whole data set. The source made the active and inactive calls. Calls follow the shape of the dose curve; as a rule, active = well fitted activation curve with a large enough effect; inconclusive = small, poorly fitted or top-dose-only effect; inactive = no such curve, though single readings can be large or run the other way.

This assay can be described thus: qHTS Multiplex Assay to Identify Dual Action Probes in a Cell Model of Huntington: Cytoprotection (ATP).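 Also: toxic huntingtin expression switched on by the ecdysone agonist tebufenozide; % of control where 0% means no effect; nearly all actives have a fitted effect of over 45% in size.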 Particulars: PC12 HTT-Q103 induced, ATP luminescence, 40 h; at 56.4 µM (top of the series). The text has this:
NIH Chemical Genomics Center [NCGC]
NIH Molecular Libraries Probe Production centers Network [MLPCN]
Assay Submitter (PI): Wei Zheng
Huntington's disease is a neurodegenerative disorder caused by a trinucleotide repeat expansion in Exon 1 of the Huntingtin gene. The CAG trinucleotide encodes glutamine and polyglutamine expansions cause cell death in selective areas of the brain. Huntington polyglutamine repeats have the tendency to form aggregates which are observable in later stages of the disease. The exact nature of the aggregates, whether toxic, protective, or insignificant, is unclear.
A stable PC12 cell line containing a gene fusion of Exon 1 of the Huntingtin gene linked to GFP under the control of the inducible ecdysone promoter were used as the cell-based model of Huntington Disease for high throughput screening. Exon 1 of the Huntingtin gene contained an expansion of 103 polyglutamines (Q103) which, when expressed, caused cell death and distinct, bright GFP aggregates. […] The cell death were quantified with a measurement of ATP content in the cells. […]
We optimized this assay in a homogeneous 1536 well format. A quantitative high throughput screen (qHTS) was conducted on the PC12 cells which were induced to express the toxic fusion construct. Small molecules which prevented cell death were identified by using a luminescent ATP quantification method (Perkin Elmer's ATPlite). […]
A general note: Quantitative high-throughput screening tests each substance at several concentrations.
On to `CCN(CC)CCCOC(=O)C(O)(c1ccccc1)c1ccccc1`, for which the cytoprotection (ATP increase) is inactive: -15.5%.

The values are drawn from PubChem BioAssay AID1471 (National Center for Advancing Translational Sciences (NCATS), 2008).
